These are literature values, as cited in US20150202224A1, “METHOD OF TREATING IRON DEFICIENCY ANEMIA” (Luitpold Pharmaceuticals, Inc., priority 2012, published 2015).

For data set [1] the following is noted: in vivo, iv; cited from earlier work.
The conditions of data set [2]: nearly neutral; cited from earlier work.

On to iron dextran, for which the “projected calculated terminal half-life (t½)” value in data set [1] is 3 to 4 days.
As for “polynuclear iron (III)-hydroxide 4(R)-(poly-(1→4)-O-α-glucopyranosyl)-oxy-2(R),3(S),5(R),6-tetrahydroxy-hexanoate [FCM]”, in data set [2], the pH was 5.0 to 7.0.
